From ChEMBL document CHEMBL4706479, “Novel Aryloxyethyl Derivatives of 1-(1-Benzoylpiperidin-4-yl)methanamine as the Extracellular Regulated Kinases 1/2 (ERK1/2) Phosphorylation-Preferring Serotonin 5-HT Receptor-Biased Agonists with Robust Antidepressant-like Activity” (J Med Chem, 2019)

Protein sequences, listed by entry. Tags and fused reporters are not part of them.
UniProt P08908, whole entry: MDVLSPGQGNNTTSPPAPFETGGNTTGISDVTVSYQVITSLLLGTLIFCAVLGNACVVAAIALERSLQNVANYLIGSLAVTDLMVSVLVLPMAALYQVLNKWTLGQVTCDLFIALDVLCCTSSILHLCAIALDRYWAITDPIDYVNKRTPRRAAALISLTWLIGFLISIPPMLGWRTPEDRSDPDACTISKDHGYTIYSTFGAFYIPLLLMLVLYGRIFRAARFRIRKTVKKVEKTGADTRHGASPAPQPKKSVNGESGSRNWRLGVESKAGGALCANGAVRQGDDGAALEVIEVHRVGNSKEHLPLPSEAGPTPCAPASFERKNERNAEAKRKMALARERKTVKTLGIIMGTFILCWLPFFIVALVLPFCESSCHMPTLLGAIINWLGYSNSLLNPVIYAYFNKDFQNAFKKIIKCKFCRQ

What was measured:
[1] = biological target: T1, 5-hydroxytryptamine receptor 1A (Homo sapiens, UniProt P08908); assay: Biased agonist activity at human recombinant 5-HT1A receptor stably expressed in CHO-K1 cells assessed as inhibition of forskolin-induced cAMP accumulation after 40 mins by LANCE Ultra cAMP kit-based TR-FRET assay relative to serotonin; assay type: functional, cell-based; details: filed as agonist
[2] = biological target: T1, 5-hydroxytryptamine receptor 1A; assay: Biased agonist activity at human recombinant 5-HT1A receptor stably expressed in CHO-K1 cells assessed as increase in calcium mobilization measured at 2 sec intervals for 180 secs by Fluo-4AM dye based fluorescence assay relative to serotonin; assay type: functional, cell-based; details: filed as partial agonist, time 180.0 sec

Emax [1]: 92%
Emax [2]: 60%
Structure (SMILES): Cc1cnc(CNCC2(F)CCN(C(=O)c3ccc(F)c(Cl)c3)CC2)nc1
